# Measured values taken from paper PMC10848080 (CNS Neuroscience & Therapeutics, 2023).
# System: DA in rat striatum
# Test: MALDI-MS imaging of DA in rat brain
# Format: in vivo
# Conditions: 6-OHDA-lesioned rats, 1 h after treatment
# Procedure: The MALDI‐MS imaging method followed Yang W's description[24] with some modifications. The brain tissues of rats were isolated 1 h after treatment and frozen in liquid nitrogen immediately, then embedded in 2% CMC‐Na and frozen overnight at −80°C. Striatum sections (20 μm) were prepared by the cryostat microtome (Leica CM1950), then transferred onto conductive ITO glass slides (Bruker) and stored at −80°C until analysis. 2,4,6‐Trimethylpyrylium tetrafluoroborate (TMP‐TFB, Aladdin) was used as the derivatization reagent (7.6 mg/mL in methanol buffered with 3.5 μL of trimethylamine), and α‐cyano‐4‐hydroxycinnamic acid (CHCA, Aladdin; 10 mg/mL, prepared in 70% methanol solution containing 0.1% trifluoroacetic acid) was used as the MALDI matrix. MALDI‐MS imaging experiments were performed on the MALDI‐FT‐ICR mass spectrometer (Solarix 9.4 T, Bruker) in positive‐ion mode. Set the pixel size of the imaging resolution at 80 nm to obtain the optimal acquisition performance. MS imaging data were visualized using Fleximaging (Bruker). After the data were normalized by the total ion current, the DA mass spectrum peak (m/z 258.1502 ± 0.002) was determined. The colored spots in the image represent the location of the neurotransmitter, and the color of each spot is related to the signal intensity detected by the laser at each pixel.
smiles,measurement,value
"N[C@@H](Cc1ccc(O)c(O)c1)C(=O)O [L‐dopa, Levodopa]","DA level in lesioned (left side) striatum, MALDI-MS imaging",no obvious DA signal
same,"DA level in non-lesioned (right side) striatum, MALDI-MS imaging",increased
